# From publication PMC8838991, “Exploring the Synergistic Anticancer Potential of Benzofuran–Oxadiazoles and Triazoles: Improved Ultrasound- and Microwave-Assisted Synthesis, Molecular Docking, Hemolytic, Thrombolytic and Anticancer Evaluation of Furan-Based Molecules” (Molecules, 2022)
# How the values were obtained:
# [1] = tested on: A549 lung cancer cell line; assay: MTT assay, cell viability; assay type: cell-based, human
# Method: The A549 cell line was treated with synthesized compounds in a final concentration of DMSO (dimethyl sulfoxide) of less than 1%.
# The cytotoxic therapeutic potential of synthesized structural hybrids was evaluated usinga standard MTT (3-(4,5-dimethylthiazol-2-yl)-2,5-diphenyltetrazolium bromide) assay. The cells of theA549 cell line were grown, overnight, in a microculture of 96-well plates. […] Following this, 150 μL of control DMSO was added to formazan crystals.The percentage of cell viability was determined viaquantified absorbance in a microplate readerat 490 nm wavelength.
# [2] = tested on: red blood cells (RBCs); assay: Hemolysis assay; conditions: sample solution in DMSO, 37 °C, 60 min, ABTS positive control, triplicate
SMILES,"Percentage Cell viability A549 (Lung Cancer) ± SD ([1]; A549, 48 h, MTT, mean ± SD in triplicate)","anticancer activity of reference drugs as quoted in SAR text ([1]; A549, MTT, values quoted for comparison)",Percentage Hemolysis ± SD [2]
"C[C@@H](Oc1cc(-c2cnn(C3CCNCC3)c2)cnc1N)c1c(Cl)ccc(F)c1Cl [Crizotinib, crizotinib, reference compound]",28.22 ± 3.88%,28.22 ± 3.88 µM,
"CCn1c(=NN=c2sc3cc(S(=O)(=O)O)ccc3n2CC)sc2cc(S(=O)(=O)O)ccc21 [ABTS, reference compound]",,,95.9%
